Measured values published in patent US7855196B2 (priority 2005, dated 2010).

Assay: Patient's pain rated on the 11-point numerical pain rating scale (clinical case examples)
Details: Example 2: phantom pain, on gabapentin and fentanyl patches; midazolam 2 mg iv; before 7/10

## Cc1ncc2n1-c1ccc(Cl)cc1C(c1ccccc1F)=NC2 [midazolam]
  pain level after treatment: 0/10
